Measurements published in PMC7076694, “The Qi Site of Cytochrome b is a Promiscuous Drug Target in Trypanosoma cruzi and Leishmania donovani” (ACS Infectious Diseases, 2020).

Chains of the proteins cited; added tags and fusions are not shown.
UniProt A5HU08, entry or part of it: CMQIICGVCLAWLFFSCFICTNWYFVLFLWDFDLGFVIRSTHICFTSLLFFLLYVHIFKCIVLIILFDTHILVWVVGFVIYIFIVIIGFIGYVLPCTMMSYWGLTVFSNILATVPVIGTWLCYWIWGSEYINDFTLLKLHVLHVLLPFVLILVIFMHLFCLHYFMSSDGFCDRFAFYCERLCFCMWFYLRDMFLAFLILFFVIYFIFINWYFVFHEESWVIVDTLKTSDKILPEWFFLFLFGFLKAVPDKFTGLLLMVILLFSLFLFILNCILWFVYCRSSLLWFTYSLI
UniProt Q9T479, entry or part of it: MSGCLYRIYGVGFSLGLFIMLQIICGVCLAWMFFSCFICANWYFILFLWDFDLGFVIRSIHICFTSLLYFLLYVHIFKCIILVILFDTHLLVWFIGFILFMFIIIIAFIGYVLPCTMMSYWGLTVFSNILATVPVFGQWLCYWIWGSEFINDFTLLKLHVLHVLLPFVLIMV

Tests used:
[1] = biological target: complex III (cytochrome bc1 complex) (Leishmania donovani, UniProt A5HU08); experiment: biochemical; assay type: biochemical
[2] = biological target: complex III (cytochrome bc1 complex) (Trypanosoma cruzi, UniProt Q9T479); experiment: Complex III (cytochrome c reduction) assay, T. cruzi lysate; assay type: biochemical; conditions: mitochondria-enriched lysate of epimastigotes
[3] = test system: complex III (cytochrome bc1 complex); experiment: biochemical; assay type: biochemical, Leishmania donovani; conditions: complex III
[4] = test system: L. donovani promastigotes; assay type: cell-based, Leishmania donovani; conditions: relative to wild-type

CCCCCC[C@H]1C(=O)O[C@H](C)[C@H](NC(=O)c2cccc(NC=O)c2O)C(=O)O[C@@H](C)[C@@H]1OC(=O)CC(C)C [antimycin A, reference compound]
IC50 [1]: 0.025 ± 0.002 µM | IC50 [2]: 0.014 ± 0.003 µM

Cc1nn2c(=O)c(Cc3ccc(Cl)cc3)c(C)[nH]c2c1C [compound 1]
fold-change in sensitivity compared to wild-type, Compound 1 RES1 lysate ([3]; L. donovani Compound 1 RES1 vs WT): 5 fold

Cc1cc(C)c2c(N)c(C(=O)N3CCC(C)(C)c4ccccc43)sc2n1 [compound 2]
relative sensitivity of L. donovani promastigotes bearing cytochrome b C222F mutation ([4]; compound 1-selected clone): hypersensitive | relative sensitivity of L. donovani promastigotes bearing cytochrome b G37A mutation ([4]; compound 1-selected clones): hypersensitivity | fold-change in sensitivity compared to wild-type, Compound 2 RES3 lysate ([3]; L. donovani Compound 2 RES3 vs WT): 42 fold
